# Laboratory results as given in PubChem BioAssay AID862 (The Scripps Research Institute Molecular Screening Center, 2007).
# This is a selection; strong and weak results do not stand in their true shares. Activity calls are given as the source filed them.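 Rule for the calls: active = inhibition above the mean inhibition across all screened compounds plus 3 SD (cut at about 44% in these data); inactive = the rest.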
# Test: IL-6 driven STAT3 reporter inhibitors, primary screen, U3A cells, luciferase, luminescence, MLSCN library (AID 862);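 note: 0% = DMSO only wells and 100% = 100 µM nifuroxazide control wells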
# Details: IL-6 STAT3-luciferase reporter, at 5.5 µM, active compounds read high, host cell line lacks STAT1
row,SMILES,inhibition
1,CP(=O)(OC12CC3CC(CC(C3)C1)C2)OC12CC3CC(CC(C3)C1)C2,inactive: 6.9%
2,CCOC(=O)c1ccc(NP(C)(=O)Oc2ccc(Cl)cc2)cc1 (stereo not given),inactive: 1%
3,CN(C)C(=O)c1c([N+](=O)[O-])cc([N+](=O)[O-])cc1[N+](=O)[O-],inactive: 3.1%
4,CP(=O)(Nc1ccc(Cl)cc1)Oc1ccc(F)cc1 (stereo not given),inactive: 4.1%
5,COc1ccccc1OP(C)(=O)Nc1ccccc1Br (stereo not given),inactive: 14.6%
6,CC(C)(C)c1ccc(OP(C)(=O)O)cc1,inactive: 4.3%
7,CCc1ccc(OP(C)(=O)Nc2cccnc2)cc1 (stereo not given),inactive: -5.3%
8,CP(=O)(Oc1ccccc1)N1CCOC1=O (stereo not given),inactive: 15.4%
9,COc1ccccc1OP(C)(=O)Nc1c(C)n(C)n(-c2ccccc2)c1=O (stereo not given),inactive: -3.1%
10,COc1ccc(OP(C)(=O)Nc2ccc(Br)cc2)cc1 (stereo not given),inactive: 5%
11,CCN(CC)CC(O)COC(=O)C(O)(c1ccccc1)C1CCCCC1 (stereo not given),inactive: -2.1%
12,CCc1ccc(OP(C)(=O)O)cc1,inactive: 5.2%
13,COc1ccccc1OP(C)(=O)Nc1ccc(C)cc1C (stereo not given),inactive: 4.2%
14,CP(=O)(Nc1ccccn1)Oc1ccccc1 (stereo not given),inactive: 2.8%
15,Cc1c(NP(C)(=O)Oc2ccc(C(C)C)cc2)c(=O)n(-c2ccccc2)n1C (stereo not given),inactive: 1.7%
16,O=[N+]([O-])c1cc([N+](=O)[O-])c(Nc2ccccn2)c([N+](=O)[O-])c1,inactive: 19.4%
17,CN(C)CCOC(=O)C(O)(c1ccccc1)C1CCCC1 (stereo not given),inactive: -1%
18,COc1ccc(OP(C)(=O)Nc2ccccn2)cc1 (stereo not given),inactive: 7%
19,CP(=O)(Nc1ccc(Cl)cc1Cl)Oc1ccccc1 (stereo not given),inactive: -4.8%
20,CP(=O)(OCCOc1ccccc1)OCCOc1ccccc1,inactive: 16.6%
21,Cc1nc2ccc3ccccc3c2o1.O=[N+]([O-])c1cc([N+](=O)[O-])c(O)c([N+](=O)[O-])c1,inactive: -1.7%
22,COc1ccc(OP(C)(=O)Nc2ccccc2Br)cc1 (stereo not given),inactive: 4%
23,COc1ccccc1OP(C)(=O)Nc1ccc(C)c(C)c1 (stereo not given),inactive: 5.8%
24,Cc1cc(C)cc(OP(C)(=O)Nc2cccc(C(F)(F)F)c2)c1 (stereo not given),inactive: 2.6%

row,SMILES,inhibition
1,CP(=O)(Nc1ccccc1)Oc1ccc(F)cc1 (stereo not given),inactive: 9.5%
2,CCN(CC)CCCOC(=O)C(O)(c1ccccc1)C1CCCCC1 (stereo not given),inactive: 7%
3,COc1ccc(OP(C)(=O)Nc2ccc(SC(F)(F)F)cc2)cc1 (stereo not given),inactive: 3.3%
4,CCOC(=O)c1ccc(NP(C)(=O)Oc2ccc(F)cc2)cc1 (stereo not given),inactive: 4.9%
5,O=C(OCCN1CCN(CCOCc2ccccc2)CC1)C(O)(c1ccccc1)c1ccccc1,inactive: 14.2%
6,CC(C)c1ccc(OP(C)(=O)Nc2ccc(SC(F)(F)F)cc2)cc1 (stereo not given),inactive: 0.8%
7,CP(=O)(Nc1ccccc1F)Oc1ccccc1 (stereo not given),inactive: -1.9%
8,Cc1ccccc1NP(C)(=O)Nc1ccccc1C,inactive: 3.7%
9,CP(=O)(Nc1ccc2c(c1)OCCO2)Oc1ccccc1 (stereo not given),inactive: 8.8%
10,CCOP(C)(=S)SCC(=O)NC(C)(CC)C(=O)O (stereo not given),inactive: 5%
11,O=[N+]([O-])c1cc([N+](=O)[O-])c(NCC2CCS(=O)(=O)C2)c([N+](=O)[O-])c1 (stereo not given),inactive: 0.6%
12,COc1ccc(NP(C)(=O)Oc2ccccc2OC)cc1 (stereo not given),inactive: 13.4%
13,CN(C)CCOC(=O)C(O)(c1ccccc1)C1CCCCC1 (stereo not given),inactive: 4%
14,COc1ccc(OP(C)(=O)Nc2cccc(Br)c2)cc1 (stereo not given),inactive: -0.7%
15,CCCOc1ccc(NP(C)(=O)Oc2ccc(Cl)cc2)cc1 (stereo not given),inactive: -6.7%
16,CP(=O)(Nc1ccc(SC(F)(F)F)cc1)Oc1ccccc1 (stereo not given),inactive: -4.1%
17,CN1CCCCC1COC(=O)C1(O)c2ccccc2CCc2ccccc21 (stereo not given),inactive: 3.2%
18,COc1ccccc1OP(C)(=O)Nc1c(C)cccc1C (stereo not given),inactive: 4.1%
19,Cc1nc2ccc3ccccc3c2s1.O=[N+]([O-])c1cc([N+](=O)[O-])c(O)c([N+](=O)[O-])c1,inactive: 11.6%
20,O=[N+]([O-])c1cc([N+](=O)[O-])c(-n2nnc3ccccc32)c([N+](=O)[O-])c1,inactive: -0.4%
21,Cc1cc(C)cc(OP(C)(=O)Nc2ccccn2)c1 (stereo not given),inactive: 0.2%
22,CP(=O)(Nc1cccc(Br)c1)Oc1ccccc1 (stereo not given),inactive: 7.6%
23,Cc1ccc(C)c(NP(C)(=O)Oc2ccccc2)c1 (stereo not given),inactive: 5.5%
24,Cc1cc(C)cc(OP(C)(=O)Nc2ccc(C)cc2C)c1 (stereo not given),inactive: 7.4%

row,SMILES,inhibition
1,CCOC(=O)c1ccc(NP(C)(=O)Oc2cc(C)cc(C)c2)cc1 (stereo not given),inactive: -2.6%
2,CC1=NCCc2c1[nH]c1ccccc21.O=[N+]([O-])c1cc([N+](=O)[O-])c(O)c([N+](=O)[O-])c1,inactive: -5.3%
3,COc1ccc(OP(C)(=O)Nc2cccc(F)c2)cc1 (stereo not given),inactive: -4.9%
4,COc1ccccc1OP(C)(=O)Nc1cc(Cl)ccc1C (stereo not given),inactive: 7%
5,Cc1cc(C)cc(OP(C)(N)=O)c1 (stereo not given),inactive: 7.6%
6,CCOC(=O)c1ccc(NP(C)(=O)Oc2ccccc2)cc1 (stereo not given),inactive: -6.8%
7,Cc1ccc(NP(C)(=O)Oc2ccccc2)c(C)c1 (stereo not given),inactive: 0.9%
8,COc1ccccc1OP(C)(=O)Nc1ccc(C)cc1 (stereo not given),inactive: 13.1%
9,Cc1cccc(C)c1OP(C)(N)=O (stereo not given),inactive: 17.1%
10,CC(C)(C)c1ccc(OP(C)(=O)Nc2ccc(SC(F)(F)F)cc2)cc1 (stereo not given),inactive: 4.6%
11,O=[N+]([O-])c1ccc2c(c1)C=Nc1ccccc1O2,inactive: -4.4%
12,CCN(CC)CCCOC(=O)C(O)(c1ccccc1)c1ccccc1,inactive: -2.8%
13,CP(=O)(Nc1ccccn1)Oc1ccc(Cl)cc1 (stereo not given),inactive: -10.4%
14,CCOP(C)(=S)SCC(=O)NC(C)C(=O)O (stereo not given),inactive: 4.1%
15,CCOC(=O)c1ccc(NP(C)(=O)Oc2ccc(OC)cc2)cc1 (stereo not given),inactive: 10.2%
16,Cc1cc(C)cc(OP(C)(=O)Nc2ccc(SC(F)(F)F)cc2)c1 (stereo not given),inactive: -4.9%
17,CP(=O)(NC(=O)Nc1ccccc1)Oc1ccccc1 (stereo not given),inactive: 3.2%
18,CP(=O)(Oc1ccccc1)OC(c1ccccc1)C(F)(F)F (stereo not given),inactive: -4.9%
19,Cc1cccc(C)c1OP(C)(=O)Nc1ccc(SC(F)(F)F)cc1 (stereo not given),inactive: -7.4%
20,COc1ccccc1OP(C)(=O)Nc1ccccc1 (stereo not given),inactive: 4.9%
21,CP(=O)(Nc1ccccc1Br)Oc1ccccc1 (stereo not given),inactive: 15.1%
22,CP(=S)(Nn1cnnc1)Oc1ccccc1 (stereo not given),inactive: 9.8%
